Test results as given in publication PMC4730229, “Benzobisthiazoles Represent a Novel Scaffold for Kinase Inhibitors of CLK Family Members” (Biochemistry, 2015).

Biological target: T1, Dyrk1A (Homo sapiens, UniProt Q13627)
T1 construct: purchased Invitrogen PV3785
Test: Kinase inhibition assay, IC50
Format: biochemical
Protocol: A small molecule inhibitor library consisting of 1600 compounds was obtained from LIFE Chemicals (Kiev, Ukraine). These compounds are part of the CUTE kinase collection that was predicted by in silico profiling against a panel of targets and includes potent kinase inhibitor compounds.[16] Compounds were dissolved as 10 mM stocks in DMSO and stored at room temperature, in the presence of 5% humidity and 5% oxygen in the dark in a Roylan Storage Pod system. Compounds were dispensed into white 384-well plates using the Labcyte Echo520 instrument at a final concentration of 10 μM. Next, 5 μL of 144.92 nM purified GST-CLK2cd in kinase assay buffer A was added to the compounds, incubated for 10 min at room temperature prior to addition of 5 μL of a 2 μM ATP/10 μM S6K peptide mixture, and incubated again for 60 min at room temperature. Subsequently, 10 μL of Kinase-Glo was added to the wells, and the plates were analyzed after 10 min on the Envision II multilabel plate reader (PerkinElmer). […] The percentage of inhibition is equal to 100 – [(total ATP before assay – remaining ATP in assay with compound)/(total ATP before assay – remaining ATP in assay with DMSO) × 100]. […] NR9 was obtained from Enzo Life Sciences (catalog no. ALX-270-463-M001). […]

IC50: 596 nM
SMILES: O=C1N=C(NCc2cccs2)S/C1=C\c1ccc2ncccc2c1 [NR9, (5Z)-5-(quinolin-6-ylmethylidene)-2-[(thiophen-2-ylmethyl)amino]-1,3-thiazol-4(5H)-one]
